Experimental data reported in article PMC2605271 (Journal of clinical neuroscience : official journal of the …, 2008).

Test system: SERT protein expression
Assay: Immunoblotting of SERT protein expression in HEK-hSERT cells
Type: cell-based, human
Details: 10^−6 M, 24 hours

## CNCCC(Oc1ccc(C(F)(F)F)cc1)c1ccccc1 (stereo not shown) [fluoxetine]
  Change in SERT protein expression in response to chronic fluoxetine treatment: no changes
